Assay results published in patent US4507314A, “Drug for treating affections provoked by a too high histamine level, of the gastroduodenal mucosa and allergic affections” (Midit, Societe Fiduciaire, priority 1983, dated 1985).

How the values were obtained:
[1] = test system: rat; conditions: daily per os during 6 weeks, 60480 min
[2] = test system: Cynomolgus monkeys; conditions: daily per os during 5 weeks, 50400 min
[3] = test system: rat; conditions: per os
[4] = test system: human lymphocytes; conditions: in vitro

(+)-catechin hydrochlorolysinate
subacute toxicity: well tolerated at doses up to [1]: up to 1000 mg/kg
subacute toxicity: well tolerated at doses up to [2]: up to 1000 mg/kg
acute toxicity ([3]; both sexes): over 6 g/kg
behavioural changes ([3]; up to 6 g/kg): did not cause behavioural changes
mortality ([3]; up to 6 g/kg): No mortality
chromosomic aberrations on human lymphocytes [4]: absence of chromosomic aberrations
